Earlier results on one substance are cited in patent US20100267803A1, “Regulators Of Fat Metabolism As Anti-Cancer Targets” (The Research Foundation of State University Of New York, priority 2008, published 2010).

The subject of this series is metastatic ERBB2-positive breast cancer. The conditions noted are these: single agent therapy; patients with metastatic ERBB2-positive breast cancer; cited from earlier work.

For “Herceptin: a monoclonal antibody targeting the extracellular domain of ERBB2”, the response rates is listed as 30%.
